Results as given in patent publication US20220175921A1 (Bristol-Myers Squibb, published 2022).

T1: recombinant human GITR/Fc (rHGITR/Fc, R&D systems CAT #689-GR) (human, UniProt Q9Y5U5 26-161, limits assumed)
T1 construct: Bought; also called soluble GITR
T1 chain: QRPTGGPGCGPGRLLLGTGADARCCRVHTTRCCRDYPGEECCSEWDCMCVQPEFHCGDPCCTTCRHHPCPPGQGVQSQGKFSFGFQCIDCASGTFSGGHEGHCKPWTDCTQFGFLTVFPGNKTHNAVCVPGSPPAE

T2: human GITR, membrane bound (on activated human T cells or on 3A9-hGITR cells) (human, UniProt Q9Y5U5 26-241)
T2 construct: also called huGITR; TNFRSF18
T2 sequence: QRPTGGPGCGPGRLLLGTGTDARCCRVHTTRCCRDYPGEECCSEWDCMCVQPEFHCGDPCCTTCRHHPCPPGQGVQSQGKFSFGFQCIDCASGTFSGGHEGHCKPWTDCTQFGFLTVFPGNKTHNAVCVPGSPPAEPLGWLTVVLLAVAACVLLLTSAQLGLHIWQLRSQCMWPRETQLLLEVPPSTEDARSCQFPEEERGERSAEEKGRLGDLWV

B1: 28F3-N297A (antibody)
heavy: QVQLVESGGGVVQPGRSLRLSCAASGFTFSSYGMHWVRQAPGKGLEWVAVIWYEGSNKYYADSVKGRFTISRDNSKNTLYLQMNSLRAEDTAVYYCARGGSMVRGDYYYGMDVWGQGTTVTVSSASTKGPSVFPLAPSSKSTSGGTAALGCLVKDYFPEPVTVSWNSGALTSGVHTFPAVLQSSGLYSLSSVVTVPSSSLGTQTYICNVNHKPSNTKVDKRV[human IgG1 Fc with changes not given here]
light: AIQLTQSPSSLSASVGDRVTITCRASQGISSALAWYQQKPGKAPKLLIYDASSLESGVPSRFSGSGSGTDFTLTISSLQPEDFATYYCQQFNSYPYTFGQGTKLEIKRTVAAPSVFIFPPSDEQLKSGTASVVCLLNNFYPREAKVQWKVDNALQSGNSQESVTEQDSKDSTYSLSSTLTLSKADYEKHKVYACEVTHQGLSSPVTKSFNRGEC
notes: 28F3 variable regions, IgG1 constant region having an N297A mutation
B2: 28F3.IgG1.1 (antibody)
heavy: QVQLVESGGGVVQPGRSLRLSCAASGFTFSSYGMHWVRQAPGKGLEWVAVIWYEGSNKYYADSVKGRFTISRDNSKNTLYLQMNSLRAEDTAVYYCARGGSMVRGDYYYGMDVWGQGTTVTVSSASTKGPSVFPLAPSSKSTSGGTAALGCLVKDYFPEPVTVSWNSGALTSGVHTFPAVLQSSGLYSLSSVVTVPSSSLGTQTYICNVNHKPSNTKVDKRVEPKSCDKTHTCPPCPAPEAEGAPSVFLFPPKPKDTLMISRTPEVTCVVVDVSHEDPEVKFNWYVDGVEVHNAKTKPREEQYNSTYRVVSVLTVLHQDWLNGKEYKCKVSNKALPSSIEKTISKAKGQPREPQVYTLPPSREEMTKNQVSLTCLVKGFYPSDIAVEWESNGQPENNYKTTPPVLDSDGSFFLYSKLTVDKSRWQQGNVFSCSVMHEALHNHYTQKSLSLSPG
light: AIQLTQSPSSLSASVGDRVTITCRASQGISSALAWYQQKPGKAPKLLIYDASSLESGVPSRFSGSGSGTDFTLTISSLQPEDFATYYCQQFNSYPYTFGQGTKLEIKRTVAAPSVFIFPPSDEQLKSGTASVVCLLNNFYPREAKVQWKVDNALQSGNSQESVTEQDSKDSTYSLSSTLTLSKADYEKHKVYACEVTHQGLSSPVTKSFNRGEC
notes: 28F3 variable regions with effectorless IgG1.1f constant region; also called 28F3.IgG1.1f; 28.IgG1.1

Columns and labels:
[1] = molecular target: T1, recombinant human GITR/Fc (rHGITR/Fc, …); assay: SPR; mAb captured (anti-CH1), rHGITR/Fc analyte
Procedure: Binding of anti-GITR antibodies to soluble GITR was determined by Biacore. […] The capture concentration of the mAb/volume was 2-40 μg/mL (5 μL at 10 μL/min). The antigen association time was 5 minutes at 15 μL/min, the antigen dissociation time was 6 minutes, and regeneration was performed with 50 mM HCl/50 mM NaOH (12 μL each at 100 μL/min).

[2] = molecular target: T2, human GITR, membrane bound (on …); assay: Scatchard; 125I-labelled mAb on 4 day stimulated human CD4+ T cells
[3] = molecular target: T2, human GITR, membrane bound (on …); assay: Scatchard; 125I-labelled mAb on 3 day stimulated human CD4+ T cells
[4] = molecular target: T2, human GITR, membrane bound (on …); assay: Scatchard; 125I-labelled mAb on 3A9-huGITR cells

Binder	Kd [1]	koff [1]	kon [1]	Kd [2]	Kd [3]	Kd [4]
B1	42.6 nM	0.00336 s⁻¹	78800 M⁻¹ s⁻¹			
B2	39.3 nM	0.00358 s⁻¹	90900 M⁻¹ s⁻¹	0.87 nM	0.7 nM	0.5 nM
